Laboratory results taken from patent publication EP0170623B1, “Novel pharmaceutical use of (NVA)2-cyclosporine” (SANDOZ AG, priority 1984, dated 1990).

Settings: 100 mg/kg/day in olive oil by stomach tube

(Nva)^2-Cyclosporine
neurological symptoms, mortality, kidney biochemistry and histology and liver biochemistry, versus Cyclosporine Group 2 (Group 1 compared with Group 2 (100 mg/kg Cyclosporine/day)): marked superiority in comparison with results obtained for Group 2 | adverse reaction in respect of other parameters measured (Group 1 compared with Group 2 (Cyclosporine), body weight, serum and urine analysis etc.): No adverse reaction
